AlphaSeq binding of Ab-14 light chain variants to a spike HR2 peptide

Reference: Engelhart et al. 2022, doi:10.1038/s41597-022-01779-4. File: FLAb, binding data.

The target is the same throughout: PDVDLGDISGINAS, from the HR2 region of SARS-CoV-2 spike.

Parent: Ab-14, a human scFv built as VH, the linker GGGGSGGGGSGGGGS, VL. Only the CDRs of the light chain vary.
VH: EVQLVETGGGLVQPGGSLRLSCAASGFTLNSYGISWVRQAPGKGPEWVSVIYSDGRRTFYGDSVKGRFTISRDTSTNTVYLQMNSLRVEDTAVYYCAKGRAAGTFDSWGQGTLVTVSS
VL: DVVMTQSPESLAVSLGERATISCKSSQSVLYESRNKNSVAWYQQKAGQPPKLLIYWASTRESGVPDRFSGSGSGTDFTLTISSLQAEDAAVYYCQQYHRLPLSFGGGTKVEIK

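Library AAYL50 holds single substitutions and randomly drawn double and triple substitutions in the CDRs. In AlphaSeq, yeast of one mating type display the scFv and yeast of the other type display the target. Mating (16 h, 30 °C) was followed by selection of diploids and sequencing of their barcodes. The ratio of observed to expected reads was calibrated, replicate by replicate, on BCL2-family standards whose Kd was known from biolayer interferometry. The assay was run in three technical replicates.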

Each variant is given by its three light chain CDRs, as the data file delimits them; those of the parent are KSSQSVLYESRNKNSVA, WASTRES, QQYHRLPLS.
Values are log10 of the apparent Kd in nM; lower means stronger binding.
Replicates are averaged; those with no signal do not enter the mean.
Where no diploid with the target was found in that replicate, the entry reads "ND": below detection, most likely a poor binder, though not proof of it.

CDR-L1	CDR-L2	CDR-L3	log10 Kd (nM) by replicate	mean, log10 nM	signal with controls
KSSQSVLYESRNKNGVY	WASARES	QQYHRLPLS	ND 3.33 ND	3.33	1 of 9 (4.81)
KSSQSVLYESRSKNSVA	WASTRCK	QQYHRLPLS	1.37 1.53 1.60	1.50	1 of 9 (3.67)
KSSQSVNKESRNKNSVA	IASTRES	QQYHRLPLS	ND ND 6.27	6.27	3 of 9 (4.03)
KSSQSVLYESRNKNSVA	WASTRES	QQYHFLPLW	0.90 1.05 0.94	0.96	1 of 9 (3.85)
DSSQSVLYESRNKNSVA	WASTRES	QFYHRLPLS	ND ND ND	ND	1 of 9 (4.26)
KSSWSVLMESRNKNVVA	WASTRES	QQYHRLPLS	1.53 1.59 1.64	1.58	0 of 9
KSSQSVLYESRNKNSQA	WAQTRES	QQYHRLPLS	4.02 ND ND	4.02	0 of 9
KSSQSVLYTSRIKNSVA	WASWRES	QQYHRLPLS	3.46 2.98 3.72	3.39	6 of 9 (4.32)
KSSQSVLYESRPKSSVA	WASTRES	EQYHRLPLS	ND 3.31 ND	3.31	1 of 9 (3.29)
KYSQEVLYESRLKNSVA	WASTRES	QQYHRLPLS	0.43 0.70 0.47	0.53	2 of 9 (3.70)
KSSQSCLYESRNKNSVS	WASTRES	AQYHRLPLS	4.09 ND 3.78	3.93	3 of 9 (3.85)
KSSQYVLYEKRNKNSVA	WASTRES	HQYHRLPLS	ND ND 5.03	5.03	1 of 9 (3.21)
KSSQSVLYESRNKNSVA	WASTRRS	QQYHRLPLS	ND ND ND	ND	0 of 9
KSSQSVLYESRNKRSVM	WASTRES	QQHHRLPLS	4.19 3.90 ND	4.05	2 of 9 (3.62)
KSSQSVLYESRNYNSVA	WASERES	QQYHRLPLY	2.40 2.83 3.24	2.82	0 of 9
KSSQSVLYESDNKDSVA	PASTRES	QQYHRLPLS	ND ND ND	ND	0 of 9
KSLQSVLYESRNKNSVA	WASTRYS	QQYHRLNLS	ND ND ND	ND	2 of 9 (3.95)
KLSQSVLYESRNKNSVA	GASTHES	QQYHRLPLS	-0.47 0.05 -0.38	-0.27	7 of 9 (5.31)
KSSQFVLYESDNKNSVA	WMSTRES	QQYHRLPLS	1.24 1.54 1.33	1.37	0 of 9
KSSQSVLYGSRNKNSVD	WASTRES	QQYHRLPLW	ND ND ND	ND	1 of 9 (3.88)
ASSQSVLYESGNKNSVA	WASTREM	QQYHRLPLS	0.73 1.04 0.88	0.88	4 of 9 (3.80)
KSSASVLYDSRNKNSVA	WASTSES	QQYHRLPLS	ND ND ND	ND	0 of 9
KSSQSVLYESRNKNSVA	MASTRWS	DQYHRLPLS	ND 2.92 ND	2.92	1 of 9 (4.74)
KSSQSVLYLSRNKNSVA	WASTRES	TQYHRLALS	3.46 3.26 2.69	3.14	0 of 9
KSSQSVLYESRNKNSVA	WASTNAS	QNYHRLPLS	ND ND 4.60	4.60	2 of 9 (3.89)
KSSQSVLYESRNKSSVA	WASMRES	QQYHRLPPS	ND ND 6.00	6.00	7 of 9 (4.31)
KSSQSGLYESRNKNSVA	WASTQDS	QQYHRLPLS	ND ND 4.02	4.02	0 of 9
KSSQSVLYCSRNKNSVA	WASTRMS	QQYHRLPLS	2.34 2.14 2.34	2.27	1 of 9 (4.23)
KSSQSVAYEYRNKNSVA	WASTRES	QQYHRLPLI	2.06 1.91 4.04	2.67	0 of 9
TSSQSVLYRSRNKNSVA	WASTRYS	QQYHRLPLS	4.04 3.49 3.77	3.77	5 of 9 (4.20)
KSSQSVLYESRNKNSVA	WASTRRS	QQPHRLPLV	6.16 3.40 ND	4.78	2 of 9 (3.65)
KSSQSVLDESRNKWNVA	WASTRES	QQYHRLPLS	0.82 1.02 0.91	0.92	2 of 9 (3.73)

In this assay the parent's reference entry averaged 0.65; its copy inside this library read 1.68.
Nonspecific signal, from three strains lacking the peptide, appeared in 18% of pairings of library AAYL50, centred on 4.19 (5% of these signals below 2.99); values are not corrected for it. The control count says in how many pairings with the empty strains this scFv gave a signal, with their mean in brackets.